{
  "sequences": {"note": "The chains behind the UniProt entries cited, without tags or fusion partners. Residues count along the entry.", "UniProt P10721, 26-976": "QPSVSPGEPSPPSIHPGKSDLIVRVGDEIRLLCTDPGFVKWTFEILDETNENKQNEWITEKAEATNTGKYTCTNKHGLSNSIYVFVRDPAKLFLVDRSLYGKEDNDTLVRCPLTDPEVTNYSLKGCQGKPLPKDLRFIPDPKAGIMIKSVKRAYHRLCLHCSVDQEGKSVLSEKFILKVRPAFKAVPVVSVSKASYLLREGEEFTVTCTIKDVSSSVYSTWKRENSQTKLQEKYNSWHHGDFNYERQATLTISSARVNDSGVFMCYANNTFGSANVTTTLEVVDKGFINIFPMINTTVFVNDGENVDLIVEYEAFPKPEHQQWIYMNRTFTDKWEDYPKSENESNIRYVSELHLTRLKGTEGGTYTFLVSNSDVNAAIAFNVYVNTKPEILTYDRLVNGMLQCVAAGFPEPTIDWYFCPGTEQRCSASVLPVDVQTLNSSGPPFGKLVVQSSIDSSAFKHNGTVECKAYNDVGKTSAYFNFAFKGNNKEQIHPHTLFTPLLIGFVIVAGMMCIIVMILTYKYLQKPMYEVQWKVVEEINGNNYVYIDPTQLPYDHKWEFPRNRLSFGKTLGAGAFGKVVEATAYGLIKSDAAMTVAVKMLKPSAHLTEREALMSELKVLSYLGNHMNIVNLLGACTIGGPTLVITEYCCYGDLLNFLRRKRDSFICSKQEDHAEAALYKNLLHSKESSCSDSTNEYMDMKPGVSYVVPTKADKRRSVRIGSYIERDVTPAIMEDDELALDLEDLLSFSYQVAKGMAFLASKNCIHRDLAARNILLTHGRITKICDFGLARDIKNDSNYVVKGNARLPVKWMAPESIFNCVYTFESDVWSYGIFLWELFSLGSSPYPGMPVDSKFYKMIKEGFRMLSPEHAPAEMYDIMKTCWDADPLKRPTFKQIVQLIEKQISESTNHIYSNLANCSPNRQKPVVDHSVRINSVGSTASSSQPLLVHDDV", "UniProt P09619, 33-1106, species assumed": "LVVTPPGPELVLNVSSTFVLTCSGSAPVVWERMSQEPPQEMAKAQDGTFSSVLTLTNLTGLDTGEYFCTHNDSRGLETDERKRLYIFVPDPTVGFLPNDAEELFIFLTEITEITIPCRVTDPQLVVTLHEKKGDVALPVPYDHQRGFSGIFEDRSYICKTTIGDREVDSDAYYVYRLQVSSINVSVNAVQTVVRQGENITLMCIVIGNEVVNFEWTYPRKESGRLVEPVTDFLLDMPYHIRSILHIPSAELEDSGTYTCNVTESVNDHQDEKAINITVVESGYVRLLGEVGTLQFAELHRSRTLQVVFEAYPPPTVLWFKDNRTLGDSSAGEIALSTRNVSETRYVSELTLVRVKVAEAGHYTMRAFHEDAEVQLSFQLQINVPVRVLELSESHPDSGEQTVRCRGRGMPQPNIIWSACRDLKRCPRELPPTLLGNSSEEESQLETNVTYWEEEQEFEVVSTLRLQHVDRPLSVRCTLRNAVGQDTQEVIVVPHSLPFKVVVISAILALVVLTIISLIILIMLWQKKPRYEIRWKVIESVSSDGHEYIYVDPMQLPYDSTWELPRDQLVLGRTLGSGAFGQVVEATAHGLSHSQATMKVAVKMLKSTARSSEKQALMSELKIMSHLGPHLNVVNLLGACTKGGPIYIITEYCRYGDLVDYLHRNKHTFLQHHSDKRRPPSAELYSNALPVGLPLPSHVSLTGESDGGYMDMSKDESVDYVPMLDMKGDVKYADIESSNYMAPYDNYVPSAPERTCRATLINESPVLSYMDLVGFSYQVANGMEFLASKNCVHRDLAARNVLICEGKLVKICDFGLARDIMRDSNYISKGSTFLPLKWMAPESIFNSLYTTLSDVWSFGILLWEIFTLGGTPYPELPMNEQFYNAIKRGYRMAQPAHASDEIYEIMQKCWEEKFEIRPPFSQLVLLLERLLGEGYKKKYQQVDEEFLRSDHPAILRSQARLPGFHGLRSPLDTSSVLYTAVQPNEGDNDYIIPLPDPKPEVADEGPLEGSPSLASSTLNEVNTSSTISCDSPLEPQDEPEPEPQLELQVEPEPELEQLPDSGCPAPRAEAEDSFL"},
  "source": "patent US20100135908A1",
  "about": "“Delivery devices for modulating inflammation” (Searete LLC, a limited liability corporation of the state …, priority 2008, published 2010)",
  "origin": "cited, not measured here",
  "key": {"[1]": {"target": "c-Kit (Homo sapiens, UniProt P10721)", "conditions": "at nanomolar concentrations"}, "[2]": {"target": "PDGFRβ (Homo sapiens, UniProt P09619)", "conditions": "at nanomolar concentrations"}},
  "data": [
    {"smiles": "Cc1nc(Nc2ncc(C(=O)Nc3c(C)cccc3Cl)s2)cc(N2CCN(CCO)CC2)n1.O", "note": "[dasatinib, N-(2-chloro-6-methylphenyl)-2-[[6-[4-(2-hydroxyethyl)-1-piperazinyl]-2-methyl-4-pyrimidinyl]amino]-5-thiazolecarboxamide, monohydrate]", "values": [
      {"measurement": "inhibition of c-Kit", "setting": "[1]", "result": "inhibits"},
      {"measurement": "inhibition of PDGFRβ", "setting": "[2]", "result": "inhibits"}
    ]}
  ]
}
